Test results from patent publication US10144746B2 (GLOBAL BLOOD THERAPEUTICS, INC., priority 2015, dated 2018).

Amino acid sequences for entries named in this document (tags omitted). Residues count along the entry.
UniProt P03952, 20-390 partner: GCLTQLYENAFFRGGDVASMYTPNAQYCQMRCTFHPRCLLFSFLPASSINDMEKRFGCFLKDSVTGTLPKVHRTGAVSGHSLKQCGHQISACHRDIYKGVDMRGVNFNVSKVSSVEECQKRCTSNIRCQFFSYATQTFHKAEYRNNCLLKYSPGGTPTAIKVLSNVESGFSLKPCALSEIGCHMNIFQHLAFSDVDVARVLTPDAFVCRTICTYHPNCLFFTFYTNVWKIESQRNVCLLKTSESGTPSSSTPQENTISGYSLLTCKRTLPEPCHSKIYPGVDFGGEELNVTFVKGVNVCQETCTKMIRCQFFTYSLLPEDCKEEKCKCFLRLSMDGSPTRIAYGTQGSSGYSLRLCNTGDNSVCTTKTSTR
UniProt P03952, 391-638: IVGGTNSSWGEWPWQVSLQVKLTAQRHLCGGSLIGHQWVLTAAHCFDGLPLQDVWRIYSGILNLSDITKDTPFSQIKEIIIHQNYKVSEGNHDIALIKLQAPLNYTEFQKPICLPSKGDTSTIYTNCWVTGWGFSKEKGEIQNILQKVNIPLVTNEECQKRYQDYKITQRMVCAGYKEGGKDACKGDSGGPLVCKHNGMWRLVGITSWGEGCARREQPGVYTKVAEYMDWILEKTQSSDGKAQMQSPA

Target: Human plasma kallikrein (Homo sapiens (Human), UniProt P03952)
Test: In vitro plasma kallikrein inhibition assay (chromogenic substrate D-Pro-Phe-Arg-pNa, absorbance at 405 nm, IC50 determination)
Format: biochemical
Protocol: In Vitro Plasma Kallikrein Inhibition Assay
The chromogenic substrate D-Pro-Phe-Arg-pNa, 2HCl (BIOPHEN CS-31(02) from Hyphen BioMed, Neuville-Sur-oise, France) was dissolved in 5 mL deionized water and stored at 4° C. […] All other chemicals were of analytical grade.
A stock solution of 7 μM in 50% glycerol was stored at −20° C.
Enzyme reactions were conducted in “assay buffer” comprised of 20 mM HEPES at pH 7.4, 150 mM NaCl, 0.1% PEG-8000 and 0.01% Triton X-100.
Both enzyme and substrate were diluted in assay buffer.
Plate measurements were conducted using a SPECTROStar Nano reader (BMG Labtech, San Francisco, Calif., USA). […] We used discrete wavelength, precise, kinetic reads of 15 cycles with a 60 sec cycle time.
Determination of IC50 values
The test compound was dissolved in 100% DMSO. The compounds were serially diluted in DMSO in a 7 point dose response. For the assays, 66.5 μL of protease solution (protease in assay buffer) was added per well followed by the addition of 8.5 μL of compound in 100% DMSO. […] The plate was placed again on the shaker for 5 sec, spun at 2000 rpm for 5 sec and read on the spectrophotometer. […] The IC50 value was calculated from the plot of rate vs. inhibitor concentration by a 4 parameter logistic equation: y=A+((B−A)/([…])) […]

Row | Substance | KLKB1 pIC50
1 | (1R,8S)-N-{[6-amino-2-methyl-4-(oxan-4-yl)pyridin-3-yl]methyl}-12-(2,4-difluorophenyl)-15-oxatetracyclo[6.6.1.0^2,7.0^9,14]pentadeca-2,4,6,9,11,13-hexaene-4-carboxamide [Example 92] | 6.81
2 | (1R,8S)-N-[(6-amino-2,4-dimethylpyridin-3-yl)methyl]-12-(2,4-difluorophenyl)-15-oxatetracyclo[6.6.1.0^2,7.0^9,14]pentadeca-2,4,6,9,11,13-hexaene-4-carboxamide [Example 7] | 6.66
